Assay results: patent US7126027B2, “N-[(1-dimethylaminocycloalkyl)methyl]benzamide derivatives” (Akzo Nobel N.V., priority 2002, dated 2006)

Protein sequences, listed by entry. Tags and fused reporters are not part of them. Lines headed by an entry give the natural chain unless they say otherwise; changes in a name come on top.
UniProt Q9Y345: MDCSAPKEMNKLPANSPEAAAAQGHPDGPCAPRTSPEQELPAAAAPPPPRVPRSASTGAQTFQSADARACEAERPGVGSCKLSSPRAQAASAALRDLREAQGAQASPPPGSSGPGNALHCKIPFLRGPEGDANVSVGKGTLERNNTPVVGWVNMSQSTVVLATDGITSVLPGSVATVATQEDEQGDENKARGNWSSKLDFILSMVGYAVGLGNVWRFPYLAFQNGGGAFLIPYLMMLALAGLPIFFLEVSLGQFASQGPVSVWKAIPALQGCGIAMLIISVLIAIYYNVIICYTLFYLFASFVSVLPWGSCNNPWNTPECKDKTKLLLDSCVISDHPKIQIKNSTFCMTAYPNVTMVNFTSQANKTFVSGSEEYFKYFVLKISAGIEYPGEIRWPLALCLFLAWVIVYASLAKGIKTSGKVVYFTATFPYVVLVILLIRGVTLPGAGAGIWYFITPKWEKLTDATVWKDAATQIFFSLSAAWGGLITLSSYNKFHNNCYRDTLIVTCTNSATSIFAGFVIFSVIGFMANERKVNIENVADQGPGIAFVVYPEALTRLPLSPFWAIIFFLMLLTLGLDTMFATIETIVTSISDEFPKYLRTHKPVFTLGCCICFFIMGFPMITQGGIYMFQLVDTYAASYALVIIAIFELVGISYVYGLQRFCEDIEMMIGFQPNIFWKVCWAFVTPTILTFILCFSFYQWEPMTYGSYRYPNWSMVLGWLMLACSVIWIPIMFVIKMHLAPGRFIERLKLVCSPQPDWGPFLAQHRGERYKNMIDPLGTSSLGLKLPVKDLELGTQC

Target: hGlyT-2 (Homo sapiens, UniProt Q9Y345)
Assay: Glycine uptake assay, CHO cells stably transfected with hGlyT-2
Type: cell-based
Conditions: read-out: Inhibition of glycine transport by hGlyT-2 IC50, [3H]-glycine 30 μM, 37° C., 10 minutes
Description: Glycine uptake assays were performed as described by Morrow et al. (FEBS Lett. 1998, 439, 334–340) using CHO cells stably transfected with either hGlyT-1b or hGlyT-2. Cells were grown in 96 well microtitre plates (30,000 cells/well) for 24–48 hours before removal of culture medium and addition of Hanks Balanced Salt Solution (HBSS) containing [^3H]-glycine (30 μM) and varying concentrations of test compounds. Plates were incubated at 37° C. for 10 minutes and uptake terminated by washing three times with ice-cold HBSS. After removal of excess liquid, scintillation cocktail was added to each well, prior to counting in a plate counter. Data were analysed using the GraphPad Prism™ analysis package and the sigmoid dose-response curve fitting option to produce IC50 (the concentration of test compound producing 50% inhibition of uptake) values.

CCCCOc1c(OC)cc(C(=O)NCC2(N(C)CC)CCCCC2)cc1OC
IC50: 1320 nM
